Assay results taken from PubChem BioAssay AID588342 (National Center for Advancing Translational Sciences (NCATS), 2011).
This is a selection; strong and weak results do not stand in their true shares. Results filed as inconclusive are left out. Calls of active or inactive are those of the source. The call rests on the fitted dose curve; in most records, active means well fitted inhibition curve with a large enough effect; inconclusive means small, poorly fitted or top-dose-only effect; inactive means flat fitted curve, though single readings scatter.

By UniProt entry, the sequences of proteins in these tests, tags left out.
UniProt P08659, whole entry, looked up: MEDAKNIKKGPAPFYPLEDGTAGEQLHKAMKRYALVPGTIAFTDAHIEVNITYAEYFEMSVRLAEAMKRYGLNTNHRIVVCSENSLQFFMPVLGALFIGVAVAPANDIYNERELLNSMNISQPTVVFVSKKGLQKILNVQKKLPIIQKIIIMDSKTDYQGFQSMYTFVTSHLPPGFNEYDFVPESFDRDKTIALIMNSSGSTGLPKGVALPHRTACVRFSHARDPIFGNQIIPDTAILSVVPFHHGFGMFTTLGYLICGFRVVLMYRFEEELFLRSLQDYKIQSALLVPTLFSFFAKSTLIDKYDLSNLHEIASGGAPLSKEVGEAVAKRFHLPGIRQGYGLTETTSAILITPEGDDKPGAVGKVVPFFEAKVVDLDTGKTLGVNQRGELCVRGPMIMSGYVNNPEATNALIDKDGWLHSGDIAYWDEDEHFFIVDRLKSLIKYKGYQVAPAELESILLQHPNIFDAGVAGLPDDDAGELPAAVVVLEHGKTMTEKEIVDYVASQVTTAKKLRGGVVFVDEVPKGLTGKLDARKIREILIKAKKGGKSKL

Target: Luciferin 4-monooxygenase (Photinus pyralis) (UniProt P08659)
Assay: qHTS profiling assay for firefly luciferase inhibitor/activator using purifed enzyme and Km concentrations of substrates (counterscreen for miR-21 project);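 further: plate controls were vehicle for no effect and reference inhibitor for full effect; nearly all actives have a fitted effect of over 55% in size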
Settings: purified FLuc, luminescence inhibition; at 57.5 µM (top of the series)

SMILES | activity change, negative = inhibition
O=[As](O)(c1ccc(O)cc1)c1ccccc1O | inactive: 6.15%
C[As](=O)(O)c1cccc(C(=O)O)c1 | inactive: 5.61%
COc1cc(C(=O)NCC2(N3CCOCC3)CCCCC2)ccc1OCC(C)C | inactive: 3.35%
Cc1ccc(OP(=O)(Nc2ccc([N+](=O)[O-])cn2)Oc2ccc(C)cc2)cc1 | inactive: 3.01%
ClCCSc1nnc(-c2cccnc2)o1 | inactive: -13.8%
CC(C)c1ccc(OP(=O)(Nc2ccccn2)Oc2ccccc2F)cc1 (stereo unspecified) | inactive: -15.8%
CCN(CC)C(=S)SC(NC=O)C(Cl)(Cl)Cl (stereo unspecified) | inactive: -1.14%
CC(C)NC(=O)NP(=O)(Oc1ccccc1)Oc1ccccc1 | inactive: -2.24%
O=[N+]([O-])c1cc([N+](=O)[O-])c(-c2ccn[nH]2)s1 | inactive: -6.19%
O=C(OC1CN2CCC1CC2)C12CC3CC(CC(C3)C1)C2 (stereo unspecified) | inactive: -0.159%
Cc1cc(=O)[nH]c(N[N+](=O)[O-])n1 | inactive: 4.24%
COc1ccc2nc(NP(=O)(c3ccccc3)c3ccccc3)sc2c1 | inactive: -8.97%
COc1cc(I)ccc1[As](=O)(O)O | inactive: 0.652%
COc1ccc(N/C(=N/P(=O)(N2CCOCC2)N2CCOCC2)N2CCOCC2)cc1 | inactive: 1.48%
COP1(=S)c2c(C)nn(CCC#N)c2N=C(c2ccc(F)cc2)N1C (stereo unspecified) | inactive: 4.78%
O=C(COc1ccccc1)OC1CN2CCC1CC2 (stereo unspecified) | inactive: 0.253%
O=C(Nc1ccncc1[N+](=O)[O-])c1ccc([N+](=O)[O-])cc1[N+](=O)[O-] | inactive: 2.4%
O=C(OC1CN2CCC1CC2)c1cccc([N+](=O)[O-])c1 (stereo unspecified) | inactive: 0.0578%
CCC(C)N(CC(C)C)C(=S)SC(NC(C)=O)C(Cl)(Cl)Cl (stereo unspecified) | inactive: 0.238%
CCOC(=O)Nc1ccc([As](=O)(O)O)c(O)c1 | inactive: -0.941%
CCCCOc1ccc(C(=O)NCC2(N3CCCCC3)CCCCC2)cc1OC | inactive: -2.19%
Cc1cc(SC(NC(=O)c2ccccc2)C(Cl)(Cl)Cl)nc(C(C)C)n1 (stereo unspecified) | inactive: 2.97%
CCOC(=O)Nc1cccc([As](=O)(O)O)c1 | inactive: -3%
O=P(Nc1ccccn1)(c1cccc2ccccc12)c1cccc2ccccc12 | inactive: -7.86%
Cc1cc(SC(NC=O)C(Cl)(Cl)Cl)ncn1 (stereo unspecified) | inactive: -4.93%
O=[N+]([O-])c1ccc(Nc2ccc(Oc3ccc([N+](=O)[O-])cc3[N+](=O)[O-])cc2)c([N+](=O)[O-])c1 | inactive: 1.43%

SMILES | activity change, negative = inhibition
Cc1nn(-c2ccccc2)c2c1P(=O)(N1CCOCC1)N(C)C(c1ccccc1)=N2 (stereo unspecified) | inactive: -1.87%
CC1CCC(C(C)C)C(OP(=O)(Nc2ccccn2)c2ccccc2)C1 (stereo unspecified) | inactive: -4.74%
Cc1ccc(C(=O)OC2CN3CCC2CC3)cc1 (stereo unspecified) | inactive: 1.92%
CN(C)C1(CNC(=O)c2ccc(S(C)(=O)=O)cc2)CCCCC1 | inactive: 1.1%
O=C(/C=C/c1ccccc1)OC1CN2CCC1CC2 (stereo unspecified) | inactive: -3.32%
O=P1(Nc2ncccn2)COc2ccccc2OC1 | inactive: -0.309%
Nc1cccc([As](=O)(O)c2ccccc2)c1 | inactive: -0.424%
O=P1(Nc2ccc(Br)cn2)COc2ccccc2OC1 | inactive: 3.51%
NS(=O)(=O)c1cccc(NC(=O)COC(=O)C(O)(c2ccccc2)c2ccccc2)c1 | inactive: 1.77%
O=[As](O)(c1cccs1)c1cccs1 | inactive: 0.937%
Cc1ccc(OCC(=O)OC2CN3CCC2CC3)cc1 (stereo unspecified) | inactive: -5.26%
O=P1(Nc2ccccn2)COc2ccccc2OC1 | inactive: -1.03%
CCC1=CC2Cc3nc4ccc(Cl)cc4c(N)c3C(C1)C2 (stereo unspecified) | inactive: 1.49%
CCOP(=O)(NC(=NC(C)c1ccccc1)NC(C)c1ccccc1)OCC (stereo unspecified) | inactive: 2%
CCOP(=O)(Nc1ccc(C)cn1)OCC | inactive: -0.755%
Clc1n[nH]nc1-c1nn[nH][15n]1 | inactive: -2.76%
CC(C)(C)C(=O)NC(Sc1ncccn1)C(Cl)(Cl)Cl (stereo unspecified) | inactive: -1.54%
COc1ccccc1CNC(=O)COC(=O)C(O)(c1ccccc1)c1ccccc1 | inactive: 2.92%
CC(C)/C=N\N=C(\N)N[N+](=O)[O-] | inactive: -0.0504%
CN(C(=O)Cc1ccc(Cl)c(Cl)c1)[C@@H]1CCCC[C@H]1N1CCCC1 | inactive: 1.77%
O=[As](O)(c1ccccc1Br)c1ccccc1Br | inactive: 1.58%
O=C(OC1CN2CCC1CC2)c1ccc(Cl)cc1 (stereo unspecified) | inactive: -1.59%
COc1cc(C(=O)NCC2(N3CCOCC3)CCCCC2)cc(Cl)c1OC(C)C | inactive: -1.35%
O=[As](O)(O)c1cccnc1 | inactive: -4.57%
CS(=O)(=O)c1ccc(Cl)c(NC(=O)COC(=O)C(O)(c2ccccc2)c2ccccc2)c1 | inactive: 2.2%
O=[As](O)(c1cccc(O)c1)c1cccc(O)c1 | inactive: -0.0681%

SMILES | activity change, negative = inhibition
Cc1cccc(OCC(=O)OC2CN3CCC2CC3)c1 (stereo unspecified) | inactive: 0.195%
Nc1cccc2c([As](=O)(O)O)cccc12 | inactive: -2.31%
Cc1ccc(NCCc2c([N+](=O)[O-])cc([N+](=O)[O-])cc2[N+](=O)[O-])cc1 | inactive: -10.9%
CCCOP(=S)(Nc1nc(N)cc(=O)[nH]1)OCCC | inactive: -4.57%
COc1cc(C2NCCC3(OCCO3)C2(C)C)cc(OC)c1OC (stereo unspecified) | inactive: 0.816%
CCOP(=O)(Nc1cccc2ccccc12)OCC | inactive: 2.27%
CCOP1(=S)c2c(C)nn(CCC#N)c2N=C(c2ccccc2F)N1C (stereo unspecified) | inactive: -0.0537%
O=P(Nc1nccs1)(Oc1ccccc1)Oc1ccccc1 | inactive: -15.4%
Nc1ccccc1[As](=O)(O)c1ccccc1 | inactive: -2.15%
O=C(O)COc1ccc([As](=O)(O)O)cc1[N+](=O)[O-] | inactive: 1.15%
NC(=O)Nc1ccc([As](=O)(O)O)cc1 | inactive: -0.397%
N#CCCN(C(=O)COC(=O)C(O)(c1ccccc1)c1ccccc1)c1ccc(F)cc1 | inactive: -0.615%
CCOP1(=S)c2c(C)nn(CCC#N)c2N=C(c2ccc(F)cc2)N1C (stereo unspecified) | inactive: 1.62%
CN(C(=O)Cc1ccccc1)[C@@H]1CC[C@]2(CCCO2)C[C@H]1N1CCCC1 | inactive: 0.442%
O=[N+]([O-])c1ccc2c(c1)nnn2O | inactive: 5.07%
c1ccc(-c2nn[nH]n2)c(-c2nn[nH]n2)c1 | inactive: -8.4%
CCOC(=O)NC(Sc1ccccc1)C(Cl)(Cl)Cl (stereo unspecified) | inactive: 2.62%
Cc1ccc(NP(=O)(Oc2cccc(C)c2)Oc2cccc(C)c2)nc1 | inactive: 1.45%
CCNC(=S)/N=C(\N)N[N+](=O)[O-] | inactive: 0.239%
O=C(NC1CCS(=O)(=O)C1)NP(=S)(Oc1ccccc1)Oc1ccccc1 (stereo unspecified) | inactive: -8.8%
O=C(OC1CN2CCC1CC2)c1ccccc1 (stereo unspecified) | inactive: 0.669%
CCC(=O)N1C2C3N(C(=O)CC)C1C1N(C(=O)CC)C(C(N1C(=O)CC)N3C(=O)CC)N2C(=O)CC | inactive: 7.03%
COC(=O)c1cc2c(s1)N=C(c1ccccc1)N(C)P2(=O)N1CCOCC1 (stereo unspecified) | inactive: 3.61%
Cc1ccc(OP(=O)(Nc2ccccn2)Oc2ccc(C)cc2)cc1 | inactive: 4.22%
CC(=O)NC(SC(=S)N(CC(C)C)CC(C)C)C(Cl)(Cl)Cl (stereo unspecified) | inactive: -2.36%
Cc1ccccc1OP(=O)(Nc1ccccn1)Oc1ccccc1C | inactive: -0.989%

SMILES | activity change, negative = inhibition
CN(C)C(=O)Oc1noc2ccccc12 | inactive: -1.65%
CC(C)(C)C(=O)NC(Sc1ccccc1)C(Cl)(Cl)Cl (stereo unspecified) | inactive: -7.26%
C[C@@H]1C=CCP(=O)(Oc2ccccc2)O1 (stereo partly specified) | inactive: 4.79%
C[C@H]1OP(=O)(Oc2ccccc2)C[C@@H]2O[C@@H]21 (stereo partly specified) | inactive: 0.376%
CC(=O)c1ccc(N2CC2c2ccncc2)cc1 (stereo unspecified) | inactive: 4.73%
CC(=O)Nc1ccc([As](=O)(O)O)c(O)c1 | inactive: 1.67%
CC(C)C(=O)NC(Sc1ccccc1)C(Cl)(Cl)Cl (stereo unspecified) | inactive: -0.93%
O=P(Nc1nccs1)(c1ccccc1)c1ccccc1 | inactive: -1.52%
c1nnnn1CCn1cnnn1 | inactive: -0.958%
O=P(Nc1ccccn1)(c1ccc(Br)cc1)c1ccc(Br)cc1 | inactive: -1.99%
CN(C)C1(CNC(=O)c2ccc(Cl)c(S(N)(=O)=O)c2)CCCCC1 | inactive: -1.87%
O=P(Nc1nc2ccccc2s1)(c1ccccc1)c1ccccc1 | inactive: -16%
C[C@H]1OP(=O)(Oc2ccccc2)[C@H](O)[C@H](O)[C@H]1N=[N+]=[N-] (stereo partly specified) | inactive: -2.38%
O=[As](O)(c1ccccc1)c1ccc(O)cc1 | inactive: 5.75%
O=[N+]([O-])c1ccc(O)c(/C=N/Nc2ccc([N+](=O)[O-])cc2[N+](=O)[O-])c1 | inactive: -12.6%
O=[N+]([O-])c1ncn(CCn2cnc([N+](=O)[O-])n2)n1 | inactive: -0.0414%
CC(=O)NC(SC(=S)N(C)C)C(Cl)(Cl)Cl (stereo unspecified) | inactive: -15.9%
O=C(OC1CN2CCC1CC2)c1cccc(Cl)c1 (stereo unspecified) | inactive: 1.92%
Nc1ccc([As](=O)(O)c2ccc([N+](=O)[O-])cc2)cc1 | inactive: -0.447%
C(Cc1nn[nH]n1)Cc1nn[nH]n1 | inactive: -1.3%
O=C(Nc1cc([As](=O)(O)O)ccc1O)c1ccccc1 | inactive: 1.81%
O=[N+]([O-])c1ncn(CCn2ncnc2[N+](=O)[O-])n1 | inactive: -1.32%
CC(C)(C)C(=O)NC(Sc1ccncn1)C(Cl)(Cl)Cl (stereo unspecified) | inactive: 1.47%
